Source: patent publication EP4847519A1, “HIGH-EFFICACY GLUCOCORTICOID COMPOUND, AND PREPARATION AND USE THEREOF” (dated 2026)

Chains of the proteins cited; added tags and fusions are not shown.
UniProt P04150, whole entry: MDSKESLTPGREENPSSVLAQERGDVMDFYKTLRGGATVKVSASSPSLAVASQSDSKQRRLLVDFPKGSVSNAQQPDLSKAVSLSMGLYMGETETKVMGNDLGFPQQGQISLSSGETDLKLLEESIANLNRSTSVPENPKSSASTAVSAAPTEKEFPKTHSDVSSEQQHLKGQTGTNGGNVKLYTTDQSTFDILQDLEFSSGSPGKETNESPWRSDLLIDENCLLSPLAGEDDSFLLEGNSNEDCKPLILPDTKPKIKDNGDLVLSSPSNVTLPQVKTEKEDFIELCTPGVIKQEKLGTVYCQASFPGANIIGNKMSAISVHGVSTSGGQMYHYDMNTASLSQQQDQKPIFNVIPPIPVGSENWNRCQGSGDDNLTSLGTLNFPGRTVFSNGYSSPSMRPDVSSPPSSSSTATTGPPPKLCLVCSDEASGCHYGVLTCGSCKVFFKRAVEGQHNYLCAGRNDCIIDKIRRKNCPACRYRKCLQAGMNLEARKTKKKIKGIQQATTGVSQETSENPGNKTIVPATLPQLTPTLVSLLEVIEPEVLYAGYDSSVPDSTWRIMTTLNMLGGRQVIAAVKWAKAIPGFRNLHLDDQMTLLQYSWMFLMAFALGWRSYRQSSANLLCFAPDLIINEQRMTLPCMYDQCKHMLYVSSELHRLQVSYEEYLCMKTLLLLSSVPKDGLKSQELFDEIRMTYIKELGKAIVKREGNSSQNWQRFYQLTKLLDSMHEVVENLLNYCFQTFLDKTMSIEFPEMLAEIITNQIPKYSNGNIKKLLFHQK

Key:
[1] = tested on: OVA-induced mouse asthma model; experiment: OVA-induced mouse asthma model, differential cell counts in BALF; conditions: for Eosinophil count / Lymphocyte count / Macrophage count / Neutrophil count / Total cell count: mean
[2] = molecular target: Glucocorticoid Receptor (GR) (Homo sapiens, UniProt P04150); experiment: GR reporter gene assay (luciferase) in GRC9/HEK293 cells; conditions: for EC50: GRC9/HEK293 cells, luciferase activity after one day of incubation; for decrease of EC50 compared with fluticasone furoate: relative to fluticasone furoate EC50 = […]
[3] = high-dose group, same dose 0.2 mg/kg
[4] = low-dose group (0.067 mg/kg), decreased to a certain extent

SMILES: C[C@@H]1C[C@H]2[C@@H]3C=C(F)C4=CC(=O)C=C[C@]4(C)[C@@]3(F)[C@@H](O)C[C@]2(C)[C@@]1(O)C(=O)OCF
EC50 [2]: 0.886 nM

SMILES: C[C@@H]1C[C@H]2[C@@H]3C[C@H](F)C4=CC(=O)C=C[C@]4(C)[C@@]3(F)[C@@H](O)C[C@]2(C)[C@@]1(OC(=O)c1ccco1)C(=O)SCF
Eosinophil count ([1]; 0.2 mg/kg): 89.55 ×10^4 | Lymphocyte count ([1]; 0.2 mg/kg): 5.92 ×10^4 | Macrophage count ([1]; 0.2 mg/kg): 193.09 ×10^4 | Neutrophil count ([1]; 0.2 mg/kg): 2.54 ×10^4 | Total cell count ([1]; 0.2 mg/kg): 291.09 ×10^4

SMILES: CCC(=O)O[C@]1(C(=O)SCF)[C@H](C)C[C@H]2[C@@H]3C=C(F)C4=CC(=O)C=C[C@]4(C)[C@@]3(F)[C@@H](O)C[C@@]21C
EC50 [2]: 0.0629 nM

SMILES: C[C@@H]1C[C@H]2[C@@H]3C=C(F)C4=CC(=O)CC[C@]4(C)[C@@]3(F)[C@@H](O)C[C@]2(C)[C@@]1(O)C(=O)OCF
EC50 [2]: 5 nM

More lines, in order of falling EC50 [2], values ahead:

EC50 [2]: 0.0645 nM
SMILES: CCC(=O)O[C@]1(C(=O)OCF)[C@H](C)C[C@H]2[C@@H]3C=C(F)C4=CC(=O)C=C[C@]4(C)[C@@]3(F)[C@@H](O)C[C@@]21C

EC50 [2]: 0.0141 nM | decrease of EC50 compared with fluticasone furoate [2]: 18%
SMILES: C[C@@H]1C[C@H]2[C@@H]3C=C(F)C4=CC(=O)C=C[C@]4(C)[C@@]3(F)[C@@H](O)C[C@]2(C)[C@@]1(OC(=O)c1ccco1)C(=O)SCF
Eosinophil count ([1]; 0.067 mg/kg): 94.16 ×10^4 | Lymphocyte count ([1]; 0.067 mg/kg): 4.81 ×10^4 | Macrophage count ([1]; 0.067 mg/kg): 209.63 ×10^4 | Neutrophil count ([1]; 0.067 mg/kg): 3.64 ×10^4 | Total cell count ([1]; 0.067 mg/kg): 312.23 ×10^4 | Eosinophil count ([1]; 0.2 mg/kg): 25.34 ×10^4 | Lymphocyte count ([1]; 0.2 mg/kg): 2.03 ×10^4 | Macrophage count ([1]; 0.2 mg/kg): 173.04 ×10^4 | Neutrophil count ([1]; 0.2 mg/kg): 3.12 ×10^4 | Total cell count ([1]; 0.2 mg/kg): 203.53 ×10^4 | eosinophil count compared with the model group ([1]; high-dose group (0.2 mg/kg)): significantly decreased | lymphocyte count compared with the model group ([1]; high-dose group (0.2 mg/kg)): significantly decreased | total cell count compared with the model group ([1]; high-dose group (0.2 mg/kg)): significantly decreased | neutrophil count compared with the model group ([1]; high-dose group (0.2 mg/kg), decreased to a certain extent): decreased | eosinophil count compared with the fluticasone furoate group [1, 3]: significantly lower | lymphocyte count compared with the fluticasone furoate group [1, 3]: significantly lower | total cell count compared with the fluticasone furoate group [1, 3]: significantly lower | eosinophil count compared with the model group ([1]; low-dose group (0.067 mg/kg)): significantly decreased | total cell count compared with the model group ([1]; low-dose group (0.067 mg/kg)): significantly decreased | lymphocyte count compared with the model group [1, 4]: decreased | neutrophil count compared with the model group [1, 4]: decreased

EC50 [2]: 0.0134 nM | decrease of EC50 compared with fluticasone furoate [2]: 22%
SMILES: C[C@@H]1C[C@H]2[C@@H]3C=C(F)C4=CC(=O)C=C[C@]4(C)[C@@]3(F)[C@@H](O)C[C@]2(C)[C@@]1(OC(=O)c1ccco1)C(=O)OCF

Each block holds one compound with its values, some of them ahead of it.
